Assay results reported in article PMC7808739, “Repurposing existing drugs: identification of SARS-CoV-2 3C-like protease inhibitors” (Journal of Enzyme Inhibition and Medicinal Chemistry, 2021).

Biological target: SARS-CoV-2 3CLpro (Severe acute respiratory syndrome coronavirus 2, UniProt P0DTD1)
Format: biochemical

Row | Structure (SMILES) | SARS-CoV-2 3CLpro inhibitor grade in words
1 | O=C(O)COCCN1CCN(C(c2ccccc2)c2ccc(Cl)cc2)CC1 (centres unmarked) [Cetirizine] | moderate
2 | CO[C@H]1C[C@@H]2CC[C@@H](C)[C@@](O)(O2)C(=O)C(=O)N2CCCC[C@H]2C(=O)O[C@H]([C@H](C)C[C@@H]2CC[C@@H](O)[C@H](OC)C2)CC(=O)[C@H](C)/C=C(\C)[C@@H](O)[C@@H](OC)C(=O)[C@H](C)C[C@H](C)/C=C/C=C/C=C/1C [Sirolimus (Rapamycin), Sirolimus] | moderate
